Assay results from ChEMBL document CHEMBL4011581, “Interference with bile salt export pump function is a susceptibility factor for human liver injury in drug development” (Toxicol Sci, 2010).

Biological target: Bile salt export pump (Homo sapiens, UniProt O95342)
Format: ADME

SMILES: CCN(CC)CC(=O)Nc1c(C)cccc1C [LIDOCAINE]
- IC50: > 135 µM
